Ki data for 16 compounds are collected here from patent US7994211B2, “Bicyclo[2.2.1]hept-7-ylamine derivatives and their uses” (Argenta Discovery Limited, priority 2005, dated 2011).

Amino acid sequences for entries named in this document (tags omitted).
UniProt P20309, whole entry, looked up: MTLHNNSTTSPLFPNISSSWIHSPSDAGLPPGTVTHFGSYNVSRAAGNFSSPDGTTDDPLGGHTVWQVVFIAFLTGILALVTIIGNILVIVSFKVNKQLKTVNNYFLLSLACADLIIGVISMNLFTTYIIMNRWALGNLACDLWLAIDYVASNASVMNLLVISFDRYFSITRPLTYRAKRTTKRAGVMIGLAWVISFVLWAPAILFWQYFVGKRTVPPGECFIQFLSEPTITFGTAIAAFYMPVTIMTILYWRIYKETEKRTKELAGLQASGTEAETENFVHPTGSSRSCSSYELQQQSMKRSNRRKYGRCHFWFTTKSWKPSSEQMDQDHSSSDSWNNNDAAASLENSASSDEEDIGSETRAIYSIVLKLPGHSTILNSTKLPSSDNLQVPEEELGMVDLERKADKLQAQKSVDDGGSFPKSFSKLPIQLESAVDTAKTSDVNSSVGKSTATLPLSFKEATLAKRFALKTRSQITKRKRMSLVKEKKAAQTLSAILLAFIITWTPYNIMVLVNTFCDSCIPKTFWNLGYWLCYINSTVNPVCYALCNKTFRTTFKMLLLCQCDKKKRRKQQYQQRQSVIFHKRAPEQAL

pKi: −log10 of the molar value. Where only a bound is given, the exact number is not on record here.

In the test the target is human muscarinic receptors (M3) (Homo sapiens, UniProt P20309). Description: Muscarinic receptor radioligand binding assay ([3H]-NMS).

As usually defined, the pKi is the negative decadic logarithm of the Ki, by convention in mol/L. The low end stands for a large Ki, the high end for a small Ki. The compound `C[N+](C)(CCCCc1ccccc1)C1C2CCC1C(OC(=O)C(O)(c1cccs1)c1cccs1)C2` (stereo not shown) showed a negative logarithm of the Ki (pKi) greater than 9.00.

Consider `C[N+](C)(Cc1ccccc1)C1C2CCC1C(OC(=O)C(O)(c1cccs1)c1cccs1)C2` (stereo not shown), for which the negative-log Ki (pKi) was less than 8.00.

Compound `C[N+](C)(CCCOc1ccccc1)C1C2CCC1C(OC(=O)C(O)(c1cccs1)c1cccs1)C2` (racemic) had a pKi greater than 9.00.

In the case of `C[N+](C)(CCc1ccc2c(c1)CCO2)C1C2CCC1C(OC(=O)C(O)(c1cccs1)c1cccs1)C2` (stereo not shown), the pKi was greater than 9.00.

With `C[N+](C)(CCCc1ccccc1)C1C2CCC1C(OC(=O)C(O)(c1cccs1)c1cccs1)C2` (racemic), the pKi is greater than 9.00.

For the compound `C[N+](C)(CCCc1ccccc1)C1C2CCC1C(OC(=O)C(O)(c1cccs1)c1cccs1)C2` (stereo not shown), the pKi was greater than 9.00.

Turning to `C[N+](C)(C)C1C2CCC1C(OC(=O)C(O)(c1cccs1)c1cccs1)C2` (stereo not shown), the pKi was greater than 9.00.

Compound `C[N+](C)(CCCOc1ccccc1)C1C2CCC1C(OC(=O)C1(O)c3ccccc3Oc3ccccc31)C2` (stereo not shown) gave a pKi greater than 9.00.

On to `C[N+]1(C2C3CCC2C(OC(=O)C(O)(c2cccs2)c2cccs2)C3)CCC(c2ccccc2)CC1` (stereo not shown), for which the pKi was less than 8.00.

As to `C[N+](C)(C1Cc2ccccc2C1)C1C2CCC1C(OC(=O)C(O)(c1cccs1)c1cccs1)C2` (stereo not shown), the pKi is greater than 9.00.

The compound `C[N+](C)(CCC1CCOCC1)C1C2CCC1C(OC(=O)C(O)(c1cccs1)c1cccs1)C2` (stereo not shown) had a pKi of 8.00 to 9.00.

Compound `C[N+]1(C2C3CCC2C(OC(=O)C(O)(c2ccccc2)c2ccccc2)C3)CCC(Cc2ccccc2)CC1` (stereo not shown) had a pKi of less than 8.00.

`C[N+](C)(CCOCc1ccccc1)C1C2CCC1C(OC(=O)C(O)(c1cccs1)c1cccs1)C2` (stereo not shown): the pKi is greater than 9.00.

Consider `C[N+](C)(CCc1ccccc1)C1C2CCC1C(OC(=O)C(O)(c1cccs1)c1cccs1)C2` (stereo not shown), for which the pKi is greater than 9.00.

In turn, `C[N+](C)(CCCOc1ccccc1)C1C2CCC1C(OC(=O)C(O)(c1ccccc1)c1ccccc1)C2` (stereo not shown) gave a pKi greater than 9.00.

Take `C[N+](C)(CC(=O)NCc1ccccc1)C1C2CCC1C(OC(=O)C(O)(c1cccs1)c1cccs1)C2` (stereo not shown): the pKi was greater than 9.00.
